The nature of the data set: Screening of CHG solubility in hydrophobic vehicles after vacuum-stripping water. The format is physicochemical. The method, then: General Method for Vacuum-Stripping Water from CHG Solutions. A 25 g sample of CHG/water solution (20 wt. CHG) was added to 45 g of the hydrophobic monoacylglyceride of interest in a 200 mL round bottom flask. The flask was put in a 60° C. oil bath and stirred with a magnetic stir bar. Vacuum (less than 3.3 kilopascal (25 Torr)) was pulled until bubbling stopped and the weight had closely approached the theoretical value of 50 grams—usually 30-90 minutes. […] In those cases, after nearly all the water was removed, additional hydrophobic monoacylglyceride was added to bring the final weight to 50 grams.
Screening tests were conducted to determine the solubility of CHG in a variety of hydrophobic vehicles. Samples were prepared by mixing CHG (20 wt. % solution in water, obtained from Xttrium Laboratories Inc., Chicago, Ill.) with the vehicle and vacuum stripping in accordance with the General Method for Vacuum-Stripping Water from CHG Solutions. The resulting concentration of CHG and residual water were determined. Also, the final state of the solution was qualitatively evaluated to determine whether the mixture was transparent and apparently homogenous, or clearly inhomogeneous.

As for Dialkyl (C12 & C13) Tartrate, the “Experimental Solubility with CHG” value is recorded as “No”. Moreover, where the note is “CHG 10 wt. %, 23-50° C.”, the “Final State” value was “Inhomogeneous”. Under “after vacuum stripping of water from CHG/vehicle mixture”, the “CHG wt. % (resulting concentration of CHG in the vehicle)” value came to 10% wt. %.

For the origin of these results see patent publication US20150238444A1, “CHLORHEXIDINE GLUCONATE SOLUBILIZED IN A HYDROPHOBIC MONOACYLGLYCERIDE” (3M INNOVATIVE PROPERTIES COMPANY, priority 2012, published 2015).
